# Measured affinities in a library of Ab-91 heavy chain variants

Data: MIT Lincoln Laboratory AlphaSeq set, Engelhart et al. 2022, doi:10.1038/s41597-022-01779-4, as distributed in FLAb.

The target is the same throughout: PDVDLGDISGINAS, from the HR2 region of SARS-CoV-2 spike.

Parent: Ab-91, a human scFv built as VL, the linker GGGGSGGGGSGGGGS, VH. Only the CDRs of the heavy chain vary.
VL: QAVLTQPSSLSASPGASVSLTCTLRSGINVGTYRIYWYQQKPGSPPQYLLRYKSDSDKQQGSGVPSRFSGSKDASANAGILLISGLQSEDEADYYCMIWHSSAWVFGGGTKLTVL
VH: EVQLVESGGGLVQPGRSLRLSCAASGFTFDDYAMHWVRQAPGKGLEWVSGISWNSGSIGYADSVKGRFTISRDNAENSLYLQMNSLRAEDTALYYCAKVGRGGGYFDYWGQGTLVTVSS

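Variants in AAYL51 differ from the parent at up to three CDR positions; double and triple changes were sampled at random. In AlphaSeq, yeast of one mating type display the scFv and yeast of the other type display the target. The frequency of each diploid, read from paired DNA barcodes, reflects how well the two displayed proteins bind. Read counts were normalised to the haploid input and turned into Kd by a linear fit to BCL2-family pairs of known affinity, for each replicate. The assay was run in three technical replicates.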

The parent's heavy chain CDRs are GFTFDDYAMH, GISWNSGSIGYADSVK, VGRGGGYFDY; each variant's own CDRs replace them letter for letter. This list gathers variants with a substitution at S63 (VH, numbered from residue 1). Affinities are written as log10 Kd with Kd in nM; a lower number is a better binder. The mean shown is taken over the replicates in which the pair was detected. "nd" marks a missing value. The strain was present, yet no cells mated with the target were sequenced in that replicate, which points to weak or no binding. Parent in this assay: reference entry 1.86, copy in this library 0.88. Empty control strains, which show no peptide, gave a signal in 21% of pairings with library AAYL51; the median was 4.54 and 95% of these signals were weaker than 3.26. No background was subtracted. For each scFv, signals with the empty controls are counted beside the result.

With GFTFDDYAMH | GISWFSGSIGYADEVK | VGRGGGYFDY the result was 3.43, nd, nd (controls 3 of 9). With GFTFDDYEMH | GISWNSGSIGYQDAVK | VGRGGGYFDY the result was 5.51, nd, nd (controls 4 of 9). With GFTFDDYASH | GISWNSGSIGYADTVK | VGRGGYYFDY the result was 4.14, nd, nd (controls 4 of 9). With GFTFDDYAMH | GTSWNSGSIGYADNVK | VGRGGGYFRY the result was 4.29, 4.28, 4.35 (mean 4.31; controls 5 of 9). For GFTFDDYAMH | HISWNSGSIGYADEVK | VGRGGGKFDY, the assay gave nd, nd, nd (controls 0 of 9). For GFTFDDYAMH | GDSWNSGSIGYADVVK | VGRGGGQFDY, the assay gave nd, nd, nd (controls 0 of 9). The variant GFTFDDYAMH | GISWNSGNIGYADMVK | LGRGGGYFDY gave nd, nd, nd (controls 2 of 9). The variant GFTFDDYAMH | GISWNSGSIGYADKVK | VGRGGGYFDY gave nd, nd, nd (controls 0 of 9). With GFTFDDYAMH | GISWNSGSIAYADRVK | VGRGLGYFDY the result was 4.96, 4.19, nd (mean 4.57; controls 0 of 9).

The variant GFTFDDYWMH | GISWNSGSIGYADFVK | VGRGGGYFDY showed nd, nd, 4.42 (controls 2 of 9). With GFTFDDYAMH | GIAWNSGYIGYADNVK | VGRGGGYFDY the result was 1.36, 1.21, 1.11 (mean 1.23; controls 2 of 9). The variant GFTHDDYAMH | GISWNSGSIGYADDVK | VGRGGGYFDY gave 4.67, 3.81, 4.48 (mean 4.32; controls 2 of 9). The variant GFTFDDHAMH | GISWNYGSIGYADVVK | VGRGGGYFDY showed nd, nd, nd (controls 0 of 9). With GFTQDDYAMH | GISWNSGSIGYADEVK | VGRGGGYFDY the result was 5.21, 5.22, 4.57 (mean 5.00; controls 7 of 9). For GFTFDDYAMH | GISWNSGSIGYQYVVK | VGRGGGYFDY, the assay gave nd, 3.80, nd (controls 0 of 9). The variant HFTFDDYAMH | GISWNSGSIGYADQVK | VGTGGGYFDY gave 3.96, nd, nd (controls 0 of 9). With PFTFDDYAMH | GISWRSGSIGYADIVK | VGRGGGYFDY the result was nd, 5.05, 5.50 (mean 5.27; controls 8 of 9). For GFTFDDYAMH | GISWNSGSIGPADEVK | VGRGGGYFDH, the assay gave 5.44, 5.68, nd (mean 5.56; controls 5 of 9).

For GFTFDDYAMH | GISMISGSIGYADFVK | VGRGGGYFDY, the assay gave nd, 5.25, nd (controls 0 of 9). With GFTFDDYAMH | GISMNSGSIGYADFVK | VGRGGGYFDH the result was 1.16, 1.15, 0.63 (mean 0.98; controls 6 of 9). With GFTFDDYRMH | GISWNSGSIGYADEVK | VWRGGGYFDY the result was nd, 5.17, 5.38 (mean 5.27; controls 4 of 9). The variant GFTFDDYAMH | WISWNSGSWGYADIVK | VGRGGGYFDY showed nd, nd, nd (controls 1 of 9). For GFTFDDYAMH | GIAWNSGSIGYADRVK | VGRGGHYFDY, the assay gave nd, nd, nd (controls 2 of 9). For GFTFDDYAMH | TISWNSGSIGYADEVK | VGRGGGYFCY, the assay gave nd, nd, nd (controls 4 of 9). With GFTFDDYAMH | GISWNSGSIIYADEVK | QGRGGGYFDY the result was 4.58, 3.90, nd (mean 4.24; controls 4 of 9). The variant PFTFDDYAMH | GISWNSGSIGYGDGVK | VGRGGGYFDY showed 6.03, 6.54, 5.26 (mean 5.94; controls 1 of 9). The variant GFTFDDYAMH | GISWCSGSIVYADFVK | VGRGGGYFDY showed nd, nd, nd (controls 2 of 9).

With GFTFDDYAMH | GISWNSGSIGYADHVK | VGRPGGDFDY the result was nd, nd, nd (controls 2 of 9). With GFTFDDYAKH | GISWNSGVIGYADGVK | VGRGGGYFDY the result was nd, nd, nd (controls 0 of 9). The variant GFTFDDYAMH | GISWNSLSIGYADCVK | VGRGGGGFDY gave 3.74, nd, nd (controls 0 of 9). The variant GFTFDDYAMH | GIQWNSGSIGYADWVK | VGRGGGYFPY gave nd, nd, 3.88 (controls 2 of 9). The variant GFTFDCYKMH | GISWNSGSIGYADTVK | VGRGGGYFDY gave 4.13, nd, nd (controls 0 of 9). The variant CFTFDDYIMH | GISWNSGSIGYADEVK | VGRGGGYFDY gave nd, nd, nd (controls 1 of 9). The variant GFTFDVYAMH | GISWNSGSIGYADNVK | WGRGGGYFDY gave nd, nd, nd (controls 4 of 9). With GFPFDDYAMH | GISWNSGSIGYADIVK | VGRGGVYFDY the result was nd, nd, nd (controls 1 of 9). The variant GFTFDDYAMH | GISWNSGSEGYADYVK | VGRGGAYFDY showed nd, nd, nd (controls 1 of 9).

For GFTFDDYAMH | GISWNSGSIGYADRVK | VGRGGGYFDY, the assay gave 1.48, 1.57, 1.00 (mean 1.35; controls 1 of 9). The variant GFTFDFYAMH | GISWNSCSIGYADTVK | VGRGGGYFDY gave 3.09, 3.40, nd (mean 3.25; controls 0 of 9). The variant GFTFDDYAMH | EISWNEGSIGYADPVK | VGRGGGYFDY showed 3.42, nd, nd (controls 1 of 9). The variant GSTFDDYAMH | GISWNIGSIGYADHVK | VGRGGGYFDY showed nd, nd, 5.33 (controls 4 of 9). The variant GFTFDDYVMH | GLSWNSGSIGYADMVK | VGRGGGYFDY gave 3.05, 3.21, 2.83 (mean 3.03; controls 4 of 9). The variant GFTFDDYAMH | GISWYSGSIGYQDPVK | VGRGGGYFDY showed nd, nd, nd (controls 1 of 9). For GHTFDDYAMH | GISWNSGSIGVADLVK | VGRGGGYFDY, the assay gave nd, nd, nd (controls 0 of 9). The variant GFTFDCYAMH | GISWNSGSIGYADYVK | VGRGGYYFDY showed 4.33, 5.86, 5.12 (mean 5.10; controls 7 of 9). For GFTFDDYAMH | MISWNSGSIGYCDVVK | VGRGGGYFDY, the assay gave 4.15, nd, 4.35 (mean 4.25; controls 2 of 9).

For GFTFDDYAMH | PISWNSGSIGQADVVK | VGRGGGYFDY, the assay gave nd, nd, nd (controls 0 of 9). The variant GFTFDDYCMH | WISWNSGSIGYADFVK | VGRGGGYFDY showed nd, nd, nd (controls 0 of 9). The variant GFTFDDYAMH | GISWNSGSIGYADMVK | VGQGGGYFDD showed 2.49, 2.54, 2.29 (mean 2.44; controls 4 of 9). The variant GFTFDDYAMH | GISWNSGDIGYADPVD | VGRGGGYFDY gave 0.86, 0.90, 0.32 (mean 0.69; controls 1 of 9). With GFTFDDYAMH | GISWNHGSITYADVVK | VGRGGGYFDY the result was nd, nd, nd (controls 1 of 9). The variant GFTFDDYAPH | GISWNSGSIGYADCVK | VGRDGGYFDY showed 4.70, 5.96, nd (mean 5.33; controls 1 of 9).

Picked from the list: the 7 lowest averages where every replicate gave a value.

| CDR-H1 | CDR-H2 | CDR-H3 | replicates, log10 nM | mean log10 Kd (nM) | signal with controls |
|---|---|---|---|---|---|
| GFTFDDYAMH | GISWNSGDIGYADPVD | VGRGGGYFDY | 0.86, 0.90, 0.32 | 0.69 | 1/9 |
| GFTFDDYAMH | GISMNSGSIGYADFVK | VGRGGGYFDH | 1.16, 1.15, 0.63 | 0.98 | 6/9 |
| GFTFDDYAMH | GIAWNSGYIGYADNVK | VGRGGGYFDY | 1.36, 1.21, 1.11 | 1.23 | 2/9 |
| GFTFDDYAMH | GISWNSGSIGYADRVK | VGRGGGYFDY | 1.48, 1.57, 1.00 | 1.35 | 1/9 |
| GFTFDDYAMH | GISWNSGSIGYADMVK | VGQGGGYFDD | 2.49, 2.54, 2.29 | 2.44 | 4/9 |
| GFTFDDYVMH | GLSWNSGSIGYADMVK | VGRGGGYFDY | 3.05, 3.21, 2.83 | 3.03 | 4/9 |
| GFTFDDYAMH | GTSWNSGSIGYADNVK | VGRGGGYFRY | 4.29, 4.28, 4.35 | 4.31 | 5/9 |